Laboratory results reported in publication PMC10748079, “Discovery of Potent Indolyl-Hydrazones as Kinase Inhibitors for Breast Cancer: Synthesis, X-ray Single-Crystal Analysis, and In Vitro and In Vivo Anti-Cancer Activity Evaluation” (Pharmaceuticals, 2023).

The chains behind the UniProt entries cited, without tags or fusion partners. Where a name states a change or a piece, a line headed by the entry shows the natural chain unless it says otherwise.
UniProt P42338: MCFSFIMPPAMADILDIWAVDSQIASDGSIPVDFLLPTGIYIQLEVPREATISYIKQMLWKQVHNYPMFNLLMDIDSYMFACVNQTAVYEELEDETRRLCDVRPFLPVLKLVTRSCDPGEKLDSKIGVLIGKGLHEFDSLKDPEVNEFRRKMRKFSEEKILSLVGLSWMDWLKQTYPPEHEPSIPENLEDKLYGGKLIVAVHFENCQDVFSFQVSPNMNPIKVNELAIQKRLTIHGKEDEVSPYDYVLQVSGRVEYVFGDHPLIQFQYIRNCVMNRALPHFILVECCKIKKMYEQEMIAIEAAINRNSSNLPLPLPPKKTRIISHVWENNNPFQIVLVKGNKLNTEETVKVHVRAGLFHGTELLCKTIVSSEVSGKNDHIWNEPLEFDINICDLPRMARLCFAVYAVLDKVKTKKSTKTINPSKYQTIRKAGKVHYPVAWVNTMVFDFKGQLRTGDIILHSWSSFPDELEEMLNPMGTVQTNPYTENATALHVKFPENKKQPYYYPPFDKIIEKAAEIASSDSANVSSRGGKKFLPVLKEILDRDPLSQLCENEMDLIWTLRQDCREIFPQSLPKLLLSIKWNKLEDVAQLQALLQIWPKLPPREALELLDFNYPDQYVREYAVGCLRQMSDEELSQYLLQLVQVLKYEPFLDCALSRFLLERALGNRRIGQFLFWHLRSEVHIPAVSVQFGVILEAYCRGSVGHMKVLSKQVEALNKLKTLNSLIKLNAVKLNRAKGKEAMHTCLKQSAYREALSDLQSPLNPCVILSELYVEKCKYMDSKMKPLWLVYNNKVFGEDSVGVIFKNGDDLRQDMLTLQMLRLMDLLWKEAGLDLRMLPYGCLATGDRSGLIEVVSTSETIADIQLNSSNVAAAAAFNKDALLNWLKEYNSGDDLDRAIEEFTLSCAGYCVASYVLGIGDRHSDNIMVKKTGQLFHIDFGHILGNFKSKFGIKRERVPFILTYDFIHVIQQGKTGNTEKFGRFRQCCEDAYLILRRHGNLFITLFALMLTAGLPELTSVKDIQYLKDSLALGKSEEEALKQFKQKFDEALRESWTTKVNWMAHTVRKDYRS

Molecular target: T1, PI3K-β (Homo sapiens, UniProt P42338)
T1 construct: purchased Bioscience, USA #79802
Assay: Kinase inhibitory assay (ELISA kit)
Format: biochemical
Conditions: average of three independent replicates; read-out: IC50 ± SD PI3K-β
Method: EGFR (catalog #40321), CDK2 (catalog #79599), AKT (catalog #78038), PI3K-α (catalog #40639), β (catalog #79802), and δ (catalog #40628) kinase inhibitions were conducted using an ELISA kit in accordance with the manufacturer instructions from Bioscience, USA. To assess the inhibitory potency of compound 5 against the kinase activity, kinase inhibitory tests were carried out. The following calculation was used to compute the proportion that chemicals inhibited autophosphorylation: […]. Using the GraphPad prism7 program, the IC50 was calculated using the curves of percentage inhibition of five concentrations of each chemical.

- IC50: 440 ± 20 nM
SMILES: O=c1cc(N2CCOCC2)oc2c(-c3ccccc3)cccc12 [LY294002, reference compound]
